Experimental data: patent US20220098196A1, “TRAPPING-FREE PARP INHIBITORS” (The Board of Regents of the University of Texas System, priority 2019, published 2022)

Protein sequences, listed by entry. Tags and fused reporters are not part of them.
UniProt P09874, whole entry: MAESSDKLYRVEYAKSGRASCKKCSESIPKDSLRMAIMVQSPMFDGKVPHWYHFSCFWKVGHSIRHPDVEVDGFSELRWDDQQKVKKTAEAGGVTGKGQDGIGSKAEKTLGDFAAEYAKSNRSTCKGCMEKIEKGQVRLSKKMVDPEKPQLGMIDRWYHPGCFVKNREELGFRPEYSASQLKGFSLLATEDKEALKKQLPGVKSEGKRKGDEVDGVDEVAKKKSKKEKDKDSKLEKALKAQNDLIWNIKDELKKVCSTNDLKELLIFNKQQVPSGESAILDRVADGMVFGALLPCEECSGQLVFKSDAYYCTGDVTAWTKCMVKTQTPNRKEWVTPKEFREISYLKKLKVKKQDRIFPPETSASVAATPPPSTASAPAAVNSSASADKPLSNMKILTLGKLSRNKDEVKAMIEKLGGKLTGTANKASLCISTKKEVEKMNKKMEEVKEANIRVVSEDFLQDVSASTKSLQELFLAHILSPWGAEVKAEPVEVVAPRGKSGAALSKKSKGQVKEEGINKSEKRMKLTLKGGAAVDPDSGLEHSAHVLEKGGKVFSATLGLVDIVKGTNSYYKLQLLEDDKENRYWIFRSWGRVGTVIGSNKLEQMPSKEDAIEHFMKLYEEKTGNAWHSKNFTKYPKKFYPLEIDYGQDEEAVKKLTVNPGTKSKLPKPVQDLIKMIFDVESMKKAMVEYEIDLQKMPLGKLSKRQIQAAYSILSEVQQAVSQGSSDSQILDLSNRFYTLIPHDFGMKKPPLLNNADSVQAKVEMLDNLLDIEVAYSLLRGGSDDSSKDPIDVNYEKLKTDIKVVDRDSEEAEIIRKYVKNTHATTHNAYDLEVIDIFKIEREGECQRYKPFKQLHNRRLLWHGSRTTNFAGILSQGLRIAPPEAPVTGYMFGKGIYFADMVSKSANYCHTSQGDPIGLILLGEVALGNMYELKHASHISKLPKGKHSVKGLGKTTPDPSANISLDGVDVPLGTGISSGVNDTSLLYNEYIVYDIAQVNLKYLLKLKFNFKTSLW

Target: PARP1 (Homo sapiens, UniProt P09874)
Experiment: PARP1 trapping in HeLa cells (subcellular fractionation, chromatin-bound fraction)
Assay type: cell-based
Set-up: host or cells: HeLa
Settings: 5 μM for all compounds, MMS 0.01%
Experimental: Subcellular Proteins Extraction. […] The cytosolic proteins were isolated by incubating the cells with the CEB buffer for 10 min at 4° C., and centrifuged at 500 g for 5 min. The membrane proteins were isolated by incubating the pellet from previous step with the MEB buffer for 10 min at 4° C., and centrifuged at 3000 g for 5 min. The soluble nuclear proteins were isolated by incubating the pellet from previous step with the NEB buffer for 30 min at 4° C., and centrifuged at 5000 g for 5 min. The chromatin bound proteins were isolated by incubating the pellet from previous step with the NEB buffer supplemented with nuclease for 15 min at RT and centrifuged at 16000 g for 5 min. Protein concentrations were determined by the BCA assay kit.

Question: Which “potency in PARP1 trapping (rank order)” value does the source give for `Cn1ncnc1[C@H]1c2n[nH]c(=O)c3cc(F)cc(c23)N[C@@H]1c1ccc(F)cc1` [BMN673] here?
Answer: BMN673>Niraparib>Olaparib>Rucaparib>Veliparib
